Earlier results as cited in US20170298446A1, “BIOMARKERS OF BRUTON TYROSINE KINASE INHIBITOR RESISTANCE” (OHIO STATE INNOVATION FOUNDATION, priority 2014, published 2017).

Chains of the proteins cited; added tags and fusions are not shown. Lines headed by an entry give the natural chain unless they say otherwise; changes in a name come on top.
UniProt Q06187: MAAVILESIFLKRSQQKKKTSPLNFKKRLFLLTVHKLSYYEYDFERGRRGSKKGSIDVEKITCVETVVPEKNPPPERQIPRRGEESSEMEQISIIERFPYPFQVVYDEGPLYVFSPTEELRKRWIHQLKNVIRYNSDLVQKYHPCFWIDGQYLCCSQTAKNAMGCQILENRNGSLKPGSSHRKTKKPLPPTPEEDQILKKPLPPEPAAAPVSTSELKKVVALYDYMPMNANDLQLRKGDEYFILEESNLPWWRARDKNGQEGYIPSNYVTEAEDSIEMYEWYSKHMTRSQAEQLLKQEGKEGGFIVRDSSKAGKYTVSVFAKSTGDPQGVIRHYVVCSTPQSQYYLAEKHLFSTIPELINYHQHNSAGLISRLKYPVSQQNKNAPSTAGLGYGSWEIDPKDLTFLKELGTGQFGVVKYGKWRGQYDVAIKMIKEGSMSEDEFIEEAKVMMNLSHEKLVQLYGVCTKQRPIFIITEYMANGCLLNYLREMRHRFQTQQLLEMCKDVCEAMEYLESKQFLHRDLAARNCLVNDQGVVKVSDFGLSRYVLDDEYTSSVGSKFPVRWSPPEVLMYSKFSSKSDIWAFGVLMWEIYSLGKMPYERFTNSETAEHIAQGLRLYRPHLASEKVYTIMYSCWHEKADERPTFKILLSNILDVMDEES

Biological target: BTK (Homo sapiens, UniProt Q06187)
Conditions: biochemical kinase / enzymology assays; read-out: IC50 against BTK

C=CC(=O)Nc1cccc(Nc2nc(Nc3ccc(OCCOC)cc3)ncc2F)c1 [CC-292, N-(3-((5-fluoro-2-((4-(2-methoxyethoxy)phenyl)amino)pyrimidin-4-yl)amino)phenyl)acrylamide]
IC50: < 0.5 nM
